From PubChem BioAssay AID588814 (The Scripps Research Institute Molecular Screening Center, 2011)
The list shows a part of the results, in another mix than the full data. The source made the active and inactive calls.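 How the source made its calls: active means activation above the run's mean compound activation plus 3 SD (cut at about 16% in these data); inactive means the rest.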

Sequences of proteins named here, by UniProt entry; tags and fusion partners are left off. A change or cut given only in a name is not applied to a line headed by its entry.
UniProt P11229: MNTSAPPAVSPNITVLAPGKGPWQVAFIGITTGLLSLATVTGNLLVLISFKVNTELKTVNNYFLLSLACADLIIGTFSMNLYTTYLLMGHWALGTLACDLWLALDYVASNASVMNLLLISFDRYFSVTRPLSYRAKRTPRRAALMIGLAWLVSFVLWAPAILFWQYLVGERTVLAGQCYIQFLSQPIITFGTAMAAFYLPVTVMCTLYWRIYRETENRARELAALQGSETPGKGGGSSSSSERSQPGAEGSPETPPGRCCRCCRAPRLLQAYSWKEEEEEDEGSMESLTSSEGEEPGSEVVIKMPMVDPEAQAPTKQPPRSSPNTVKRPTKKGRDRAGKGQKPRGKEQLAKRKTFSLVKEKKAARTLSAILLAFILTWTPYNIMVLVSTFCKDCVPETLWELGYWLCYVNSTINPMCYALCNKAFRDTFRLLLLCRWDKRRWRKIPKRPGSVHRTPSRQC

Target: Muscarinic acetylcholine receptor M1 (Homo sapiens) (UniProt P11229)
Test: CHRM1 activation via calcium signal – Fluo-8 calcium fluorescence, CHO-K1 cells, HTS, primary screen (AID 588814);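 further: peak over basal fluorescence ratio within a 140 s kinetic read after compound addition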
Settings: CHO-K1 hM1, Fluo-8 calcium fluorescence, agonist mode; at 3 µM; hits give high values; 0% DMSO, 100% acetylcholine EC100

Compound | activation
CC(=O)Nc1ccc([As](=O)(O)O)c(O)c1 | inactive: -1.39%
COC(=O)C1(C)COP(=O)(NCc2ccccc2)OC1 (stereo not given) | inactive: -1.53%
CC(=O)c1ccc(N2CC2c2ccncc2)cc1 (stereo not given) | inactive: -3.53%
N#C/C(=C\c1ccc(N(CCBr)CCBr)cc1)C(N)=O | inactive: -0.83%
C[C@H]1OP(=O)(Oc2ccccc2)C[C@@H]2O[C@@H]21 (stereo not given in full) | inactive: -0.27%
C[C@@H]1C=CCP(=O)(Oc2ccccc2)O1 (stereo not given in full) | inactive: -1.24%
CCN(CC)CCOC(=O)C(O)(c1ccccc1)c1ccccc1 | inactive: -6.38%
Cc1ccccc1CN(C)C(=O)COC(=O)C(O)(c1ccccc1)c1ccccc1 | inactive: 1.39%
CCc1cc(O)c([N+](=O)[O-])c(C)c1[N+](=O)[O-] | inactive: 5.23%
CC(C)(C)C(=O)NC(Sc1ccccc1)C(Cl)(Cl)Cl (stereo not given) | inactive: -15.3%
CCOc1ccc(C2=NCC(CBr)S2)cc1 (stereo not given) | inactive: -1.52%
O=P1(Nc2nc3ccc(Cl)cc3s2)COc2ccccc2O1 (stereo not given) | inactive: -4.67%
CCN(C(=O)COC(=O)C(O)(c1ccccc1)c1ccccc1)c1c(N)n(Cc2ccccc2)c(=O)[nH]c1=O | inactive: -0.47%
O=c1c2cc([N+](=O)[O-])ccc2[nH]c2c([N+](=O)[O-])cc([N+](=O)[O-])cc12 | inactive: 15.2%
CN(C)C(=O)Oc1noc2ccccc12 | inactive: -3.63%
CC(NC(=O)COC(=O)C(O)(c1ccccc1)c1ccccc1)c1ccccc1 (stereo not given) | inactive: -1.68%
Cc1ccccc1OP(=O)(Nc1ccccn1)Oc1ccccc1C | inactive: -1.98%
Cc1ccc(OP(=O)(Nc2ccccn2)Oc2ccc(C)cc2)cc1 | inactive: -9.55%
CC(=O)NC(SC(=S)N(CC(C)C)CC(C)C)C(Cl)(Cl)Cl (stereo not given) | inactive: -4.57%
COC(=O)c1cc2c(s1)N=C(c1ccccc1)N(C)P2(=O)N1CCOCC1 (stereo not given) | inactive: 1.43%
CCC(=O)N1C2C3N(C(=O)CC)C1C1N(C(=O)CC)C(C(N1C(=O)CC)N3C(=O)CC)N2C(=O)CC | inactive: -1.88%
Clc1ccc(N2CCN(Cc3c[nH]c4ncccc34)CC2)cc1 | inactive: -1.92%
O=C(OC1CN2CCC1CC2)c1ccccc1 (stereo not given) | inactive: -10.7%
O=P1(N(CCCl)CCCl)OCCC2CCCCN21 (stereo not given) | inactive: -1.01%
CC1C(=O)OC2CCN3CC4OC4(COC(=O)C(C)(O)C1(C)O)C23 (stereo not given) | inactive: 1.97%
O=C(NC1CCS(=O)(=O)C1)NP(=S)(Oc1ccccc1)Oc1ccccc1 (stereo not given) | inactive: -7.57%
CCNC(=S)/N=C(\N)N[N+](=O)[O-] | inactive: -3.34%
C=C1C(=O)OC2CCN3CC=C(COC(=O)C(C)(O)C4(CO4)C1C)C23 (stereo not given) | inactive: -12.3%
Cc1ccc(NP(=O)(Oc2cccc(C)c2)Oc2cccc(C)c2)nc1 | inactive: -0.72%
c1ccc(-c2nn[nH]n2)c(-c2nn[nH]n2)c1 | inactive: -5.04%
